{"source": "patent US10888553B2", "about": "“Use of non-transition metal coordinated dipyridoxyl compounds to prevent and treat chemotherapy-induced PSN” (KARLSSON-TUNER INVEST AS, priority 2016, dated 2021)", "origin": "cited, not measured here", "system": "organic cation transporter 2 (OCT2)", "details": "overexpression of OCT2; cited from earlier work", "data": [{"smiles": "O=C(O)C(=O)O.[NH-][C@@H]1CCCC[C@H]1[NH-].[Pt+2]", "note": "[oxaliplatin]", "values": [{"measurement": "increase in neuronal uptake of oxaliplatin", "value": "up to 35 fold"}]}]}
